This passage reports Ki results from BindingDB's records for doi:10.1038/sj.mp.4000336 (University of Toronto, 1998).

Protein sequences, listed by entry. Tags and fused reporters are not part of them.
UniProt P14842, whole entry: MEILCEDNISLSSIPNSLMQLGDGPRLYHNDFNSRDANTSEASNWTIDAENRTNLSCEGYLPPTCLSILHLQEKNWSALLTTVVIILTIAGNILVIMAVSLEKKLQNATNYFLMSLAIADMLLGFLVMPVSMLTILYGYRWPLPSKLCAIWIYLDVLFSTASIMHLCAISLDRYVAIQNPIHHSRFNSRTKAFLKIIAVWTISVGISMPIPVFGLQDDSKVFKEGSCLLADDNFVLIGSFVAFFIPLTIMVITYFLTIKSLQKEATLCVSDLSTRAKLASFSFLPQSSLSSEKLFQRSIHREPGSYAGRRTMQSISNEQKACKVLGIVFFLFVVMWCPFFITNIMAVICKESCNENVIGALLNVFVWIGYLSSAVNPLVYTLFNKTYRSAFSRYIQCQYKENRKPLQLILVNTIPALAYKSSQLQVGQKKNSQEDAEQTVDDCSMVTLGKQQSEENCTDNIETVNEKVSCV
UniProt P14416, whole entry: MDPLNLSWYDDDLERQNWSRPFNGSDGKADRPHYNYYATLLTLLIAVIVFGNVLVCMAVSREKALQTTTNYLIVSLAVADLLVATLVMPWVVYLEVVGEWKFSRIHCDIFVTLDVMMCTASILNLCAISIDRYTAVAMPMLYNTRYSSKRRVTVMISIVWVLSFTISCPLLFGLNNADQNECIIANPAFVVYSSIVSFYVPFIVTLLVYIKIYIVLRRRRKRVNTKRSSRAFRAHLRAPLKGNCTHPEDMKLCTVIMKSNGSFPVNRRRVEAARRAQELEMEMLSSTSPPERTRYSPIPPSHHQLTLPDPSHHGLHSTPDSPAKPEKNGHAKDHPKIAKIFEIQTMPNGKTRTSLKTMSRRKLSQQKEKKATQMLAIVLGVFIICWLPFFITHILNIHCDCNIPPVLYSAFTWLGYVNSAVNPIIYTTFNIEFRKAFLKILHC
UniProt P28223, whole entry: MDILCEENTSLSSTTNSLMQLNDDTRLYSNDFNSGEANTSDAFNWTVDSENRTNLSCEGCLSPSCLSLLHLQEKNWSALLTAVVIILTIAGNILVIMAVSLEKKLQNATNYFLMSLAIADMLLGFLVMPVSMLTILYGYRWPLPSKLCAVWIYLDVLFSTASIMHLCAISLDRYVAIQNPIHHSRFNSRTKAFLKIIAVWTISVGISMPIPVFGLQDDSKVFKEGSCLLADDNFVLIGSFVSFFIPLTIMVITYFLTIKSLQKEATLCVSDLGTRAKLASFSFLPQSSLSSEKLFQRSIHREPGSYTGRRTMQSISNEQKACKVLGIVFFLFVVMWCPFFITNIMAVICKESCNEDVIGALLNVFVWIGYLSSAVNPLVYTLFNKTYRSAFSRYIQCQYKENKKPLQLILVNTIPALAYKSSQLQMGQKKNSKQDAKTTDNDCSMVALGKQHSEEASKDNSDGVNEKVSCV
UniProt P21917, whole entry: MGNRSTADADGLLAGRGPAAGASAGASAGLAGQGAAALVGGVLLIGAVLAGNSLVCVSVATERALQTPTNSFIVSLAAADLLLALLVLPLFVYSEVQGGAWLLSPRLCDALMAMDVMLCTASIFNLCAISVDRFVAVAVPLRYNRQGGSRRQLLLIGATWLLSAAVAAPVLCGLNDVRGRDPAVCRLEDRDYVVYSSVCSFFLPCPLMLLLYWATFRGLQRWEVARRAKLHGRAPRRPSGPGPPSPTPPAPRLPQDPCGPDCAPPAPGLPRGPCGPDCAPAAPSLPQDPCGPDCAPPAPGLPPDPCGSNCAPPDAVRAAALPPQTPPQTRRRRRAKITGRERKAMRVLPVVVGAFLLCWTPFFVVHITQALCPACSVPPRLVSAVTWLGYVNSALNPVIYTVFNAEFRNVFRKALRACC

Experiment [1] concerns the target 5-hydroxytryptamine receptor 2A (Rattus norvegicus, UniProt P14842).
The next experiment concerns the target D(2) dopamine receptor (Homo sapiens, UniProt P14416).
Experiment [2] deals with 5-hydroxytryptamine receptor 2A (Homo sapiens, UniProt P28223).
A further experiment deals with D(4) dopamine receptor (Homo sapiens, UniProt P21917).

In general, Ki refers to a measure of affinity in units of concentration, obtained from inhibition or displacement. As to `Cc1nc2sccn2c(=O)c1CCN1CCC(=C(c2ccc(F)cc2)c2ccc(F)cc2)CC1`, the affinity in experiment [1] corresponds to a Ki of 0.00054 µM.

On D(2) dopamine receptor, `CN1CCN(C2=Nc3cc(Cl)ccc3Oc3ccccc32)CC1` showed a Ki of 0.006 µM. Take `CC1CCN(CCCC(=O)c2ccc(F)cc2)CC1` [CAS_3575-80-2]: the inhibition constant Ki in experiment [2] was 0.15 µM. At D(4) dopamine receptor, `CCN1CCC[C@H]1CNC(=O)c1cc(S(N)(=O)=O)ccc1OC` [Sulpiride-S] registered a Ki of 0.2 µM.
